Reference: patent US7528226B2, “TGFβ1-inhibitor peptides” (Rojecto de Biomedicina Cima S.L., priority 1998, dated 2009)

System: type I, II and III cell receptors of TGFβ1
Experiment: Affinity labelling: inhibition of binding of 125I-TGFβ1 to its cell receptors on MV-1-Lu cells
Design: species or system human
Conditions: preincubation with peptide at 10^6 times the molar concentration of 125I-TGFβ1
Description: The MV-1-Lu cells were removed from the culture flasks incubating them at 37° C. for 10 minutes, with 10 ml of solution 1 (128 mM NaCl, 5 mM KCl, 25 mM 4-(2-hydroxyethyl)-1-piperazine ethanesulphonate at pH 7.5, 5 mM glucose and 1 mM EDTA). The cells thus removed were resuspended in solution 2 (128 Mm NaCl, 5 mM KCl, 50 mM 4-(2-hydroxyethyl)-1-piperazine ethanesulphonate at pH 7.5, 1.2 mM CaCl2, 1.2 mM MgSO4 and 5 mg/ml BSA) and were collected by centrifugation at 1000×g for 5 minutes. After centrifugation the cells were resuspended in solution 2 at a concentration of 10^6 cells/ml.
From this cell suspension, 0.5 ml aliquots were made in 24-well plates (Greiner GmbH, Frickenhausen, Germany), the peptides were added, in 50 μl of a 0.8 mg/ml solution, then this was incubated for 2 hours at 4° C. with stirring. Next, ^125I-TGFβ1 (2 μCi) was added to a final concentration of 277.2 pM (^125I-TGFβ1 human recombinant 800-2200 Ci/mmol, Amersham Life Science, Buckinghamshire, UK) and this was incubated for a further two hours at 4° C. with stirring.
After incubation, the cells were transferred to a centrifuge tube and were centrifuged cold at 12,000×g for 1 minute. […]

CC[C@H](C)[C@H](NC(=O)[C@H](Cc1ccc(O)cc1)NC(=O)[C@@H]1CCCN1C(=O)[C@H](CS)NC(=O)[C@@H]1CCCN1C(=O)CNC(=O)[C@H](CC(C)C)NC(=O)[C@H](CS)NC(=O)[C@H](Cc1ccccc1)NC(=O)[C@H](CC(N)=O)NC(=O)[C@H](C)NC(=O)[C@H](Cc1c[nH]cn1)NC(=O)[C@H](Cc1ccc(O)cc1)NC(=O)CNC(=O)[C@H](CCCCN)NC(=O)[C@@H]1CCCN1C(=O)[C@H](CCC(=O)O)NC(=O)[C@@H](N)Cc1c[nH]cn1)C(=O)N[C@@H](Cc1c[nH]c2ccccc12)C(=O)N[C@@H](CO)C(=O)N[C@@H](CC(C)C)C(=O)N[C@@H](CC(=O)O)C(=O)N[C@H](C(=O)O)[C@@H](C)O [P29]
inhibition of the binding of 125I-TGFβ1 to the cell receptors: inhibition of the binding
